# Assay results taken from ChEMBL document CHEMBL1151667, “Chlorochimaphilin: a new antibiotic from Moneses uniflora” (1996).
# Tested on: Escherichia coli
# Settings: UB1005
sequence,measurement,value
GENTAMICIN,MIC,0.5 µg/mL
